Experimental findings from paper PMC8452626 are described below.

The test has as its target GST-tagged mDia2 FH1-FH2 formin construct (GST-mDia2-FF) (UniProt Q9Z207). Briefly: pull-down; GST-mDia2-FF (0.5 uM dimer) incubated 1 h at RT with 5 uM Mox- or unoxidized actin and 15 uM profilin in LT-KMEH7 buffer (pH 7, 50 mM KCl, latrunculin A), then glutathione-Sepharose beads 2-2.5 h at 4 C; Coomassie-stained gels quantified; stoichiometries per 1 formin dimer after accounting for nonspecific binding (GST) and formin amounts.

With “unoxidized actin-profilin complex (from UniProt P68135 1-377; P07737 1-140)”, the stoichiometry N (actin per 1 formin dimer) was found to be 0.81 and the stoichiometry N (profilin per 1 formin dimer) came out at 1.03.
Taken in the same sequence, the figures for “Mox-actin-profilin complex (from UniProt P68135 1-377; P07737 1-140)” were 0.62 and 0.58.
